This series can be described thus: Equilibrium solubility in biorelevant media, saturation shake-flask method. It counts as physicochemical.

Values after ≈ are worked out from the molar mass of the structure shown. Where two headings read alike, the source gives them in different places.

For `CC(C)Cc1ccc(C(C)C(=O)O)cc1` (stereo not shown) [ibuprofen], the “SpH ± SD” value runs as follows: (FaSSGF, pH 1.6, 37 °C) 56.0 ± 0.5 µg/mL; (FaSSIF blank, pH 6.5, 37 °C) 2513 ± 15 µg/mL. The solubility thermodynamic at 6 h by setting is: (blank FaSSGF, pH 1.6, read-out: equilibrium solubility SBlankFaSSGF) 56.3 µg/mL (≈ 0.273 mM); (pH 6.5 blank FaSSIF, read-out: equilibrium solubility) approximately 2500 µg/mL (≈ 12.1 mM).

The values are drawn from publication PMC10051608, “Multi-Compartmental Dissolution Method, an Efficient Tool for the Development of Enhanced Bioavailability Formulations Containing Poorly Soluble Acidic Drugs” (Pharmaceutics, 2023).
